This is a selection; strong and weak results do not stand in their true shares. Some tests of the compounds listed are not included; inactive here does not mean inactive elsewhere. Inconclusive results are not listed. Activity calls are given as the source filed them. Calls follow the shape of the dose curve; as a rule, active = well fitted inhibition curve with a large enough effect; inconclusive = small, poorly fitted or top-dose-only effect; inactive = no such curve, though single readings can be large or run the other way.
Experiment: Primary qHTS for Identification of Small Molecule Inhibitors of Huntingtin Promoter Activity; also: nearly all actives have a fitted effect of over 50% in size
Conditions: HEK293 HTT promoter firefly luciferase reporter (activity 0% = vehicle and -100% = no light), 24 h; at 57.5 µM (top of the series)
From the text: Assay Provider: Russell L. Margolis M.D.
Department Neurology, Johns Hopkins University School of Medicine, Baltimore, MD
Huntington's Disease (HD) is a neurodegenerative disorder caused by a CAG repeat expansion in exon 1 of huntingtin (HTT). While there are currently no disease-modifying treatments for HD, recent efforts have focused on development of nucleotide-based therapeutics to lower HTT expression. As an alternative to siRNA or oligonucleotide methods, we hypothesized that suppression of HTT expression might be accomplished by small molecules that either (1) directly decrease HTT expression by suppressing HTT promoter activity or (2) indirectly decrease HTT expression by increasing the promoter activity of HTT-AS, the gene antisense to HTT that appears to inhibit expression of HTT.
We developed and employed a high throughput screen for modifiers of HTT and HTT-AS promoter activity using luminescent reporter HEK293 cells; of the 52,041 compounds tested, we identified 898 replicable hits. We used a rigorous stepwise approach to assess compound toxicity and the capacity of the compounds to specifically lower huntingtin protein in 5 different cell lines, including HEK293 cells, HD lymphoblastoid cells, mouse primary neurons, HD iPSCs differentiated into cortical-like neurons, and HD hESCs. We found no compounds which were able to lower huntingtin without lowering cell viability in all assays, though the potential efficacy of a few compounds at non-toxic doses could not be excluded.
SEQUENCE No. (1, 2, 3, etc.); […] (e.g., Cells, Incubation, Reagent, etc.); VALUE and DESCRIPTION.
1; Reagent; 4 uL; 2,500 Hek293 luciferase reporter cells per wells
3; Compound; 23 nL; Control inhibitor / compound library
5; Reagent; 2.5 uL; Firefly Luc reagent; Dual-Glo Luciferase Reporter Assay System (Promega)
6; Time; 10 min; room temperature incubation
7; Detection; Luminescence; FLuc
NOTES (numbers refer to sequence above)
1; High-throughput screening, measuring luminescence from a Hek293 luciferase reporter, was performed in 1,536 well white-walled tissue-culture treated plates. 2,500 cells were plated in 4 µL of Opti-MEM per well using a Multidrop Combi Reagent Dispenser (ThermoFisher).
2; Assay plates were cultured for 24 hours.
3; Control inhibitor (PTC124; final concentration of 50 uM) and compound library (at final concentrations of 460 nM - 57.5 uM) were added to the assay plate using the Kalypsis Pintool Robotic System equipped with 1536 pinheads.
4; Cells were then incubated for 24 hours at 37 degrees C prior to luminescence measurements.
5; In all cases, luminescence was measured using the Dual-Glo Luciferase Reporter Assay System (Promega) following the manufacturer's instructions.
6; Room temperature incubation.
7; Luminescence signal was obtained using the PerkinElmer ViewLux plate reader. Results were normalized to vehicle control (0% activity) and zero RLU (-100% activity).

Row | SMILES | activity change, negative = inhibition
1 | CN(C)C1(CNC(=O)c2cccc(Cl)c2)CCCCC1 | inactive: -12.5%
2 | CN(C)C1(CNC(=O)c2ccccc2F)CCCCC1 | inactive: -10.1%
3 | CN(C)C1(CNC(=O)c2ccccc2[N+](=O)[O-])CCCCC1 | inactive: -8.48%
4 | CCCCOc1ccccc1C(=O)NCC1(N(C)C)CCCCC1 | inactive: -6.22%
5 | CCOc1cccc(C(=O)NCC2(N(C)C)CCCCC2)c1 | inactive: -7.91%
6 | COc1ccc(C(=O)NCC2(N(C)C)CCCCC2)cc1Cl | inactive: 6.54%
7 | COc1cccc(C(=O)NCC2(N3CCOCC3)CCCCC2)c1 | inactive: -5.58%
8 | CC(C)COc1ccc(C(=O)NCC2(N(C)C)CCCCC2)cc1 | inactive: -13.4%
9 | COc1cc(C(=O)NCC2(N(C)C)CCCCC2)cc(OC)c1OC | inactive: -2.08%
10 | Cc1cccc(C(=O)NCC2(N(C)C)CCCCC2)c1 | inactive: -16.5%
11 | CC(C)Oc1ccc(C(=O)NCC2(N(C)C)CCCCC2)cc1 | inactive: -5%
